Experimental data as given in patent US8507714B2, “7-membered ring compound and method of production and pharmaceutical application thereof” (Daiichi Sankyo Company, Limited, priority 2004, dated 2013).
Where two headings read alike, the source gives them in different places.

System: DNFB-induced dermatitis in C3H/HeN mice
Conditions: 10 mg/kg orally once a day, 24 hours after DNFB application at fifth application, female C3H/HeN mice

CC[C@@H](NC(=O)N1CC(=O)NC[C@@H](Cc2cc(Cl)ccc2OC)C1=O)c1ccc(C(=O)O)c(N)c1 [2-amino-4-[(1R)-1-({[(6R)-6-(5-chloro-2-methoxybenzyl)-3,7-dioxo-1,4-diazepan-1-yl]carbonyl}amino)propyl]benzoic Acid]
inhibition rate of the skin reaction: 20.0%

CC[C@@H](NC(=O)N1CC(=O)NC[C@H](Cc2cc(Cl)ccc2OC)C1=O)c1ccc(C(=O)O)c(N)c1 [Compound 150, 2-amino-4-[(1R)-1-({[(6S)-6-(5-chloro-2-methoxybenzyl)-3,7-dioxo-1,4-diazepan-1-yl]carbonyl}amino)propyl]benzoic Acid]
inhibition rate of the skin reaction (listed as compound 150): 29.9%

CC[C@@H](NC(=O)N1CC(=O)NC[C@H](Cc2cc(Cl)ccc2OC)C1=O)c1ccc(C(=O)O)c(N)c1 [Compound 179B, 2-amino-4-[(1R)-1-({[(6S)-6-(5-chloro-2-methoxybenzyl)-3,7-dioxo-1,4-diazepan-1-yl]carbonyl}amino)propyl]benzoic Acid Monoacetic Acid Solvate]
inhibition rate of the skin reaction (listed as compound 179B): 32.8%
